US6451314B1, “MHC conjugates useful in ameliorating autoimmunity” (Anergen, Inc., priority 1988, dated 2002)

Tested on: T cells derived form the thymus of young onset MG patient
Experiment: Anergy induction in AChR-specific, DR4Dw4-restricted T cells (tritiated thymidine proliferation)
Assay type: cell-based, human
Details: IL2 at 0.5%
Procedure: The T cells in this experiment were derived form the thymus of young onset MG patient. They recognize the residues 138-167 AChR αsubunit and are restricted by DR4Dw4. In the experiments, 2×10^4 T cells were preincubated for varying times with either complex (DR4: p138-167), DR4 alone, or peptide alone. Antigen presenting cells (APC's) pulsed with different antigens were then added and proliferation of the T cells was measured using tritiated thymidine as described above. The stimulating antigens included p138-167 and a recombinantly produced AChR αsubunit polypeptide termed r37-181, which was prepared as described in Beeson et al., EMBO J 9:2101-2106 (1990) and Beeson et al., Biochem. Soc. Trans. 17:219-220 (1989), both of which are incorporated herein by reference.
To test the specificity of the interaction of the complexes with the T cells, T-cells (1×10^4) were incubated with various forms of the complex. These were—the relevant complex DR4:p138-167, DR4 alone, soluble DR4 and “sham” p138-167 in equimolar (proportionally) amounts but not bound together and DR4:MBPp1-14 complex. Sham peptide was used as previous experiments had shown that soluble p138-167 alone had similar effects to the complex. […]

IL2: IL2 added at 0.5% at the time of preincubation
effect of addition at the time of preincubation with DR4:p138-167: did not diminish the inhibitory effects of the complex
